Laboratory results published in patent publication US5827737A, “In vitro activation of cytotoxic T cells” (The Scripps Research Institute, priority 1996, dated 1998).

Assays:
[1] = tested on: murine Class I molecules expressed on Drosophila cells; experiment: 37° C. thermostability of murine Class I on Drosophila cells grown in Excell 400; assay type: cell-based; settings: human β2 added to cells in Excell 400 medium
[2] = tested on: murine Class I heavy chains; experiment: Relative thermostability in cell lysates by origin of β2 microglobulin and peptide length

human β2 microglobulin: human β2 microglobulin
time for which all three murine Class I molecules are stable at 37° C. [1]: at least three
increase in temperature of stability of murine heavy chains versus complex with murine β2 [2]: 6-8 degrees
